The values below are quoted from earlier work in patent publication US5153181A, “Pharmaceutical compositions comprising organic polymers containing inorganic anionic groups and method of prophylaxis and treatment of retrovirus infections in mammals using said compositions” (priority 1986, dated 1992).

The conditions of the series: known from the literature; cited from earlier work.

On to dextran sulfate MW 500,000, for which the LD50 was 150 mg/kg.

With pentosan polysulfate MW 5,000, the LD50 was 1000 mg/kg.

As to dextran sulfate MW 8,000, the LD50 was 2000 mg/kg.

What is called LD50 is the dose at which mortality reaches 50%.
